Reference: paper PMC12250763, “Synergistic and Antagonistic Mechanisms of Arctium lappa L. Polyphenols on Human Neutrophil Elastase Inhibition: Insights from Molecular Docking and Enzymatic Kinetics” (Molecules, 2025)

Molecular target: T1, human neutrophil elastase (HNE) (Homo sapiens, UniProt P08246)
T1 construct: gene ELANE
T1 sequence (P08246 30-247): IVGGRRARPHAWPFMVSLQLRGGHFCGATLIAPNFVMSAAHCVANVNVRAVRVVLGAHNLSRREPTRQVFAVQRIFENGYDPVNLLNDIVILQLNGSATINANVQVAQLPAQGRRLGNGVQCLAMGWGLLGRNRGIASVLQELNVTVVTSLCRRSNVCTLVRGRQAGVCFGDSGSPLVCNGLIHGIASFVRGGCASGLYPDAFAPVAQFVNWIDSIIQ
Test: chromogenic elastase assay (MeOSuc-AAPV-pNA, […] nm), dose-response
Format: biochemical

Structure (SMILES): CC(C)(C)C(=O)Oc1ccc(S(=O)(=O)Nc2ccccc2C(=O)NCC(=O)O)cc1 [SLT, sivelestat, reference compound]
- IC50: 49.8 nM
